Legend:
[1] = target: T1, Alpha-1A adrenergic receptor (Homo sapiens, UniProt P35348); assay: Binding constant measured against Alpha-1A adrenergic receptor in human prostate; ++:moderately active; format: tissue-based, Prostate gland
T1 sequence (P35348 whole entry): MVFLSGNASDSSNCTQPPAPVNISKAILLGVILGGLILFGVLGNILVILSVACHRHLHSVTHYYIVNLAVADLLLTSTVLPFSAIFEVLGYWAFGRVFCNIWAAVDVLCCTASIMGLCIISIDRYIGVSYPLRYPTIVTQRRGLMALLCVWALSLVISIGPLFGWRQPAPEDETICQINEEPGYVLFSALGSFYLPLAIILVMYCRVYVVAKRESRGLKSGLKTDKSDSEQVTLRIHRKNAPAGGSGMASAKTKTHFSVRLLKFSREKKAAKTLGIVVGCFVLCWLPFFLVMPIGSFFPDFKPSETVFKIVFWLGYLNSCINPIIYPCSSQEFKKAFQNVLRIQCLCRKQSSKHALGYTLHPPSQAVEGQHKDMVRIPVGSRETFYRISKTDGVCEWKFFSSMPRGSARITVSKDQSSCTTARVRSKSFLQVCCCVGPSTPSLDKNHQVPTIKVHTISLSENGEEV

[2] = target: T1, Alpha-1A adrenergic receptor; assay: Binding constant measured against Alpha-1A adrenergic receptor in human prostate; +:inactive; format: tissue-based, Prostate gland

| Ki [1] [nM] | Ki [2] [nM] | Compound |
| --- | --- | --- |
| 1.3 |  | Cc1c[nH]c(=O)n(CCCN2CCN(c3ccc(F)cc3OCC(F)(F)F)CC2)c1=O |
|  | 130 | O=C1CC2(CCCC2)CC(=O)N1CCN1CCN(c2cc(Cl)ccc2Cl)CC1 |

From ChEMBL document CHEMBL1144284, “Pharmacophore identification of alpha(1A)-adrenoceptor antagonists” (Bioorg Med Chem Lett, 2005)
